Residue numbers refer to the chain shown, from its start.
Experiments:
Assay type in all cases: cell-based
GAL2R mutants [1] = biological target: T1, GAL2R mutants (Homo sapiens, UniProt O43603, L172A); assay: Calcium assay, HEK293/Gα16 cells, GAL2R mutants; conditions: GAL2R L172ECL2A; spexin, HEK293/Gα16; mean ± S.E.M.
T1 construct: expressed in transfected cells; host or cells: HEK293
T1 sequence (O43603 1-387 L172A): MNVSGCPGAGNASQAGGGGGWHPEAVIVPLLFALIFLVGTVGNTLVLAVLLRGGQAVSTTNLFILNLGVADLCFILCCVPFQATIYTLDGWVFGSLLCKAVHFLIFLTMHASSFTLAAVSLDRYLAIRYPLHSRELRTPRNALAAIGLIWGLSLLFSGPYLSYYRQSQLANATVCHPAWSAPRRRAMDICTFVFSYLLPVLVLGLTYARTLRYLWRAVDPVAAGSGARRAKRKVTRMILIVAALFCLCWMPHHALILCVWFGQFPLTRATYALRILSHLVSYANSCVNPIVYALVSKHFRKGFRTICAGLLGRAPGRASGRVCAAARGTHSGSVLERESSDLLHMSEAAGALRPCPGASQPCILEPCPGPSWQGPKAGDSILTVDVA

GAL2R mutants [2] = biological target: T2, GAL2R mutants (Homo sapiens, UniProt O43603, Y271A); assay: Calcium assay, HEK293/Gα16 cells, GAL2R mutants; conditions: GAL2R Y2717.32A; spexin, HEK293/Gα16; mean ± S.E.M.
T2 construct: expressed in transfected cells; host or cells: HEK293
T2 sequence (O43603 1-387 Y271A): T1 sequence (O43603 1-387 L172A) with A172L, Y271A

GAL2R mutants [3] = biological target: T3, GAL2R mutants (Homo sapiens, UniProt O43603, F264A); assay: Calcium assay, HEK293/Gα16 cells, GAL2R mutants; conditions: GAL2R F264ECL3A, spexin
T3 construct: expressed in transfected cells; host or cells: HEK293
T3 sequence (O43603 1-387 F264A): T1 sequence (O43603 1-387 L172A) with A172L, F264A

GAL2R mutants [4] = biological target: T4, GAL2R mutants (Homo sapiens, UniProt O43603, T267A); assay: Calcium assay, HEK293/Gα16 cells, GAL2R mutants; conditions: GAL2R T2677.28A; spexin, HEK293/Gα16; mean ± S.E.M.
T4 construct: expressed in transfected cells; host or cells: HEK293
T4 sequence (O43603 1-387 T267A): T1 sequence (O43603 1-387 L172A) with A172L, T267A

GAL2R mutants [5] = biological target: T5, GAL2R mutants (Homo sapiens, UniProt O43603, R184A); assay: Calcium assay, HEK293/Gα16 cells, GAL2R mutants; conditions: GAL2R R1845.35A; spexin, HEK293/Gα16; mean ± S.E.M.
T5 construct: expressed in transfected cells; host or cells: HEK293
T5 sequence (O43603 1-387 R184A): T1 sequence (O43603 1-387 L172A) with A172L, R184A

GAL2R = biological target: T6, GAL2R (Homo sapiens, UniProt O43603); assay: Calcium assay, HEK293/Gα16 cells, WT GAL2R; conditions: spexin, mean ± S.E.M.
T6 construct: expressed in transfected cells; host or cells: HEK293/Gα16
T6 sequence (O43603 1-387): T1 sequence (O43603 1-387 L172A) with A172L

spexin was tested, and the EC50 (GAL2R mutants [1]) was 8.66 ± 0.279 µM, the EC50 (GAL2R mutants [2]) was 2.76 ± 1.61 µM and the EC50 (GAL2R mutants [3]; HEK293/Gα16) was greater than 100 µM. For the same substance, the EC50 (GAL2R mutants [3]; replicate 1) was greater than 100 µM, the EC50 (GAL2R mutants [3]; replicate 2) was greater than 100 µM and the EC50 (GAL2R mutants [3]; replicate 3) was greater than 100 µM. For the same substance, the EC50 (GAL2R mutants [4]) was 4 ± 3.27 µM, the EC50 (GAL2R mutants [5]) was 3.98 ± 3.3 µM and the EC50 (GAL2R) was 0.195 ± 0.071 µM.
